The values below come from ChEMBL document CHEMBL1136550, “Discovery of orally bioavailable NK1 receptor antagonists” (Bioorg Med Chem Lett, 2003).

The chains behind the UniProt entries cited, without tags or fusion partners.
UniProt P25103, whole entry: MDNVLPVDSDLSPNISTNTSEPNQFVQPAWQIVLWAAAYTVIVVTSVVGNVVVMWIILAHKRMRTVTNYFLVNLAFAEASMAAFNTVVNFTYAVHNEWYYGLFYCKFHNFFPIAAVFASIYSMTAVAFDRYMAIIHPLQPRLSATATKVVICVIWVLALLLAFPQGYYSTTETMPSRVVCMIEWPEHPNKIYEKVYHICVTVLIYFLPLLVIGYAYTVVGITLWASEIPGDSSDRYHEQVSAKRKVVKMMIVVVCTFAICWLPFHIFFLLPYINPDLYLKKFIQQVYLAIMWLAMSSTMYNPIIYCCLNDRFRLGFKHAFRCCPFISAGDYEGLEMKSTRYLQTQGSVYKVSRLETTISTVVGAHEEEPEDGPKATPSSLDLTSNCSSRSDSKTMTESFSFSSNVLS

pKi: −log10 of the molar value.

As usually defined, the pKi is the negative decadic logarithm of the Ki, by convention in mol/L. Low readings indicate a large Ki, high ones a small Ki.

The target in this experiment is Substance-P receptor (Homo sapiens, UniProt P25103). Put plainly: Displacement of [3H]-substance P from human NK1 receptor expressed in CHO cells. It counts as cell-based. (In general: In a radioligand displacement assay an active substance lowers the binding of a labelled ligand.)

In turn, `C[C@H](OC[C@@H](c1ccccc1)N1CCN(CCOCC(=O)O)CC1)c1cc(C(F)(F)F)cc(C(F)(F)F)c1` showed a negative logarithm of the Ki (pKi) of 8.60.
